Reference: patent publication US20230382915A1, “GCN2 AND PERK KINASE INHIBITORS AND METHODS OF USE THEREOF” (Deciphera Pharmaceuticals, LLC, priority 2021, published 2023)

By UniProt entry, the sequences of proteins in these tests, tags left out. Chains listed by the source or under a name are the forms on record and can include a tag or linker. Residues count along the entry.
UniProt Q9P2K8, whole entry: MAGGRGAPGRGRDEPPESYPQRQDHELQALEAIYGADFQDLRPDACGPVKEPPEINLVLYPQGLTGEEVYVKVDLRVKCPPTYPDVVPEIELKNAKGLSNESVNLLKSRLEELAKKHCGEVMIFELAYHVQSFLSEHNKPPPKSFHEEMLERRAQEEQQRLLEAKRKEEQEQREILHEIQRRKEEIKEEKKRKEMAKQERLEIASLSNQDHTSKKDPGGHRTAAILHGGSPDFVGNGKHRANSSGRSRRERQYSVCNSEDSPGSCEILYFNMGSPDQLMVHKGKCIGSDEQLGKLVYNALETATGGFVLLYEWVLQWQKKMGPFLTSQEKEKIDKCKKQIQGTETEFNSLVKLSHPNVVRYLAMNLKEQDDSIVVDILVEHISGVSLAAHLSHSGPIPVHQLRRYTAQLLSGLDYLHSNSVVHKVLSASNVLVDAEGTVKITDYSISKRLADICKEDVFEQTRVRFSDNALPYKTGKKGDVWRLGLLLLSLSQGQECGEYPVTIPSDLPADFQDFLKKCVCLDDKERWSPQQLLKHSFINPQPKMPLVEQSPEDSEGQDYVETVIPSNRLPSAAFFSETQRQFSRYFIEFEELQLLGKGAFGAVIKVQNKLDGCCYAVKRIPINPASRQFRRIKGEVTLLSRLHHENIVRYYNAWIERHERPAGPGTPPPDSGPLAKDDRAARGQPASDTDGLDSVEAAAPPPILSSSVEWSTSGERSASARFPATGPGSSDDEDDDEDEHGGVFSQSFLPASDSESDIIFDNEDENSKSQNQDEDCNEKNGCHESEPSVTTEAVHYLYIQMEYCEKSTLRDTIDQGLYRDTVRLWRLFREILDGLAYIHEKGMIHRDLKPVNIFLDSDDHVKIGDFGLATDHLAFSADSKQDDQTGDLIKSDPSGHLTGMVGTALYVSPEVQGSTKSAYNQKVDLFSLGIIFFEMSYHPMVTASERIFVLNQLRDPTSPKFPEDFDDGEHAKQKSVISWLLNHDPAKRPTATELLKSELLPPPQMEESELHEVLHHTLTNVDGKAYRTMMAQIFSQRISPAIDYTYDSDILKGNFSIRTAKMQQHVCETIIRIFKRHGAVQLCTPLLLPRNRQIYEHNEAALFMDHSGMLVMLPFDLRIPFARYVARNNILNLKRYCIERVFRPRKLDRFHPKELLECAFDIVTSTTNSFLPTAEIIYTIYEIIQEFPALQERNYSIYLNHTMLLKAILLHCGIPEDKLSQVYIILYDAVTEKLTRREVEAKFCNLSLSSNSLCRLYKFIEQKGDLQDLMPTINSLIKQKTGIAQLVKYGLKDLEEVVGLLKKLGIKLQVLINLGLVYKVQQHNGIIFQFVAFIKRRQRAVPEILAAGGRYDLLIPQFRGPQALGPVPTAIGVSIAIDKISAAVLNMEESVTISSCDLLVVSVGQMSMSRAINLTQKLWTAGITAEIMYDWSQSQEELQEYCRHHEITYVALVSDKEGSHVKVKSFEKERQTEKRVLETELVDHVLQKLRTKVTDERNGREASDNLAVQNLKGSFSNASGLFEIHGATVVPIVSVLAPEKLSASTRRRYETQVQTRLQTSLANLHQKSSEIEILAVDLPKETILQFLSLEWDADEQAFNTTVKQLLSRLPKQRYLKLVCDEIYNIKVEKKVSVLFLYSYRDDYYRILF
UniProt Q9NZJ5, 564-1116 with tags or gaps limits assumed: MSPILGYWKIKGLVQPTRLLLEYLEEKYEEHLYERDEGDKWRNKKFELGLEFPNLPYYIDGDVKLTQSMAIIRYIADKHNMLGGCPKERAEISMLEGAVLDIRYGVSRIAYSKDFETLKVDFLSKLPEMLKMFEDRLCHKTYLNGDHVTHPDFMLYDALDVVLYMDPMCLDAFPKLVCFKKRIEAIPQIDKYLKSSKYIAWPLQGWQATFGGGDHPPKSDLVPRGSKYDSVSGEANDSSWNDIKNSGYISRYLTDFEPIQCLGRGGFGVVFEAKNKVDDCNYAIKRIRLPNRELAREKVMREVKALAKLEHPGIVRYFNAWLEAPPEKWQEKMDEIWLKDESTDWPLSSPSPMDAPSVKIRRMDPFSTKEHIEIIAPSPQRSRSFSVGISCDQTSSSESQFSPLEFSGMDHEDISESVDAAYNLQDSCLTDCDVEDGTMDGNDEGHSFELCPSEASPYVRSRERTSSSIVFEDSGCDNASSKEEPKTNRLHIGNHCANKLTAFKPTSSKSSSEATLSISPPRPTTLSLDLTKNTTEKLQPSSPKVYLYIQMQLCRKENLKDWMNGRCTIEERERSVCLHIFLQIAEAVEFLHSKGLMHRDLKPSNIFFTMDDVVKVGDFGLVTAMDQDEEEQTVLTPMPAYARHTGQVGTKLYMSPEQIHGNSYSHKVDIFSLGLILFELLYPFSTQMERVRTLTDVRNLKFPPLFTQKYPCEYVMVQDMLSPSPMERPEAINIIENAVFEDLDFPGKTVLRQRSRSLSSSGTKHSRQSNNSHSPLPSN

Experiments:
GCN2 kinase = GCN2 kinase (Homo sapiens (Human), UniProt Q9P2K8); assay: Biochemical assay for GCN2 (TR-FRET kinase activity); details: read-out: GCN2 IC50; 1 mM ATP
Method: Activity of GCN2 kinase was determined using a TR-FRET kinase activity assay (e.g. Riddle et al. Analytical Biochemistry (2006) 356(1) 108-116). Assays were conducted in 384-well plates (13 μL assay volume) using 2 nM GCN2 (Carna Biosciences), 130 nM GFP-EIf2α (Invitrogen), 0.2 mg/mL E. coli tRNA (sigma) and 1 mM ATP in kinase buffer (Invitrogen). Inhibition of GCN2 was measured by adding serial diluted test compound (final assay concentration of 0.5% DMSO) followed by a 3-hour incubation. Tb-peIF2α (pSer52) antibody (Invitrogen) (2 nM final assay concentration) in kinase buffer containing EDTA (final assay concentration of 20 mM) was added. After a 60 min incubation at room temperature, TR-FRET was monitored using an excitation wavelength of 340 nm and emission wavelengths of 490 nm and 520 nm. The emission ratio (520/490) at each compound concentration of was converted to percent inhibition using controls (i.e., reaction with no test compound and reaction with a known inhibitor) and IC50 values were calculated by fitting a four-parameter sigmoidal curve to the data using Prism (GraphPad software).

PERK enzyme = PERK enzyme (Homo sapiens (Human), UniProt Q9NZJ5); assay: Biochemical assay for PERK (coupled pyruvate kinase/lactate dehydrogenase); details: read-out: PERK IC50; 1 mM ATP
Method: Activity of PERK kinase was determined spectroscopically using a coupled pyruvate kinase/lactate dehydrogenase assay that continuously monitors the ATP hydrolysis-dependent oxidation of NADH (e.g., Schindler et al. Science (2000) 289: 1938-1942). Assays were conducted in 384-well plates ([…] final volume) using 10 nM PERK (from Beryllium), 0.25 mg/mL Myelin Basic Protein substrate, 1.5 units pyruvate kinase, 2.1 units lactate dehydrogenase, 1 mM phosphoenol pyruvate, 0.28 mM NADH and 1 mM ATP in assay buffer (100 mM Tris, pH 7.5, 15 mM MgCl2, 0.5 mM DTT, 0.004% (w/v) BSA, and 0.004% Triton X-100). Inhibition of PERK was measured by adding serial diluted test compound (final assay concentration of 1% DMSO). A decrease in absorption at 340 nm was monitored continuously for 6 hours at 30° C. on a multi-mode microplate reader (BioTek). The reaction rate was calculated using the 2-3 h time frame. The reaction rate at each concentration of compound was converted to percent inhibition using controls (i.e., reaction with no test compound and reaction with a known inhibitor) and IC50 values were calculated using software routines in Prism (GraphPad software).

CCRF-CEM leukemia cells = assay: CCRF-CEM ASNase cell proliferation assay; details: read-out: CCRF-CEM ASNase Cell Proliferation; 1 mU/mL ASNase, 72 h
Method: CCRF-CEM leukemia cells (catalog #CCL-116) were obtained from the American Type Culture Collect (ATTC, Manassas, VA). Cells were grown in RPMI-1640 medium supplemented with 10% heat-inactivated fetal bovine serum (Invitrogen, Carlsbad, CA) and 1% Penicillin/Streptomycin/L-Glutamine at 37° C., 5% CO2, and 95% humidity. Cells were expanded until reaching one million cells per mL at which time they are subcultured or harvested for assay use. Ten thousand cells per well in 200 μL RPMI-1640 supplemented with 10% heat-inactivated fetal bovine serum and 1% Penicillin/Streptomycin were dispensed into a 96-well black clear bottom plate. A serial dilution of test compound and 1 mU/mL ASNase was added in triplicate and plates were incubated for 72 h at 37° C., 5% CO2, and 95% humidity. At the end of the incubation, 40 μL of a […] solution of resazurin (Sigma, St. Louis, MO) in PBS was added to each well of the plate and plates were incubated for an additional 6 h at 37° C., 5% CO2, and 95% humidity. Plates were read on a Synergy2 or equivalent reader (Biotek, Winooski VT) using an excitation of 540 nm and an emission of 600 nm. Data was analyzed using GraphPad Prism software (GraphPad, San Diego, CA) to calculate IC50 values.

[1] = test system: ATF4 in thapsigargin stimulated CCRF-CEM cells (PERK); assay: CCRF-CEM thapsigargin (TG) ATF4 ELISA; details: read-out: CCRF-CEM Thapsigargin ATF4 ELISA; 1 μM thapsigargin
Method: CCRF-CEM leukemia cells (catalog #CCL-116) were obtained from the American Type Culture Collection (ATTC, Manassas, VA). Briefly, cells were grown in RPMI-1640 medium supplemented with 10% heat-inactivated fetal bovine serum (Invitrogen, Carlsbad, CA) and 1% Penicillin/Streptomycin/L-Glutamine at 37° C., 5% CO2, and 95% humidity. Cells were expanded until reaching one million cells per mL at which time they were subcultured or harvested for assay use. One million five hundred thousand cells per well in 1 mL complete growth medium were dispensed into 12-well plates and incubated overnight. A serial dilution of test compound was added and cells were incubated at 37° C., 5% CO2, and 95% for three hours, then 1 μM thapsigargin was added and cells were incubated for an additional hour at 37° C., 5% CO2, and 95%. Cells were lysed then ATF4 levels were measured using an ELISA assay (Proteintech, Rosemont, IL). Absorbance was measured at 450 nm and 544 nM using a Synergy2 or equivalent reader (Biotek, Winooski VT). Data was analyzed using PRISM software (Graphpad, San Diego, CA) to calculate IC50 values.

IC50 (GCN2 kinase): 100 to 500 nM
IC50 (PERK enzyme): < 100 nM
IC50 (CCRF-CEM leukemia cells): 500 to 1000 nM
IC50 [1]: 100 to 500 nM
Compound: Cc1c(CO)cc(F)cc1S(=O)(=O)Nc1cccc(-c2cn(C)c3ncnc(N)c23)c1F
